Experiments:
[1] = target: Tyrosine-protein phosphatase non-receptor type 6 (Homo sapiens, UniProt P29350); experiment: Ratio between dissociation constant and First-order rate constant (Ki / K inact) of SHP 1 was determined
[2] = target: T1, Tyrosine-protein phosphatase non-receptor type 1 (Homo sapiens) (UniProt P18031); experiment: Ratio between dissociation constant and First-order rate constant (Ki / K inact) of PTP 1B was determined
T1 sequence (whole entry): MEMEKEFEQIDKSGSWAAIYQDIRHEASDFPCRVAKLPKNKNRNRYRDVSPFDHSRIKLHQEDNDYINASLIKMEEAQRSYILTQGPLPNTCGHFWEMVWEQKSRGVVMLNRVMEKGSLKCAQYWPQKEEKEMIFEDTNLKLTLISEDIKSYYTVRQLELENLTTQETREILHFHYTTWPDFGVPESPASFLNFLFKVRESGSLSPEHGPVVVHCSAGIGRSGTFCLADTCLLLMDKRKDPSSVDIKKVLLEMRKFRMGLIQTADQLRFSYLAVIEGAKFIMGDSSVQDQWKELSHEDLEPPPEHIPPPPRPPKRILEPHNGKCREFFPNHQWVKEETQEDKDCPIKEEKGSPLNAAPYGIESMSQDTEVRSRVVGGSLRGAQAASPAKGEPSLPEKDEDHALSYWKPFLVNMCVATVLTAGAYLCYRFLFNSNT

Sequences of proteins named here, by UniProt entry; tags and fusion partners are left off. A change or cut given only in a name is not applied to a line headed by its entry.
UniProt P29350: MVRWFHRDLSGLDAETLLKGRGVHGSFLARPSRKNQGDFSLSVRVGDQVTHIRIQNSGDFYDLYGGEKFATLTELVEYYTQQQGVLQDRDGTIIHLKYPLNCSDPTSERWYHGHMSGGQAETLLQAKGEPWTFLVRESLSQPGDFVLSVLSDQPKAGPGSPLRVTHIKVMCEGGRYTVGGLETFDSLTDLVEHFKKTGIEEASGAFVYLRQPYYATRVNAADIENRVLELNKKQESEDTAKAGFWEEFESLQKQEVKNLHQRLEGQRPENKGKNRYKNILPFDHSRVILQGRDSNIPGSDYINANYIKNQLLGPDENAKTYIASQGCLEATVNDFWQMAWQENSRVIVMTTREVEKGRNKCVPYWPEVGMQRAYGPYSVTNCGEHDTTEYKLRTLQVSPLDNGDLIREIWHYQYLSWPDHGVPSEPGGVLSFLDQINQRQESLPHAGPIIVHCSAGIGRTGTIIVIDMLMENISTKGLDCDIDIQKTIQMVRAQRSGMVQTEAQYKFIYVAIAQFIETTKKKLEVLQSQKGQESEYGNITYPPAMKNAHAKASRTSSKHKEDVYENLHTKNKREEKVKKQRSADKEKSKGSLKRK

O=C(O)CCC(NC(=O)[C@H](CCC(=O)O)NC(=O)CNC(=O)c1ccccc1-c1ccc(C(=O)CBr)cc1)C(=O)O (some centres not stated)
Ratio [1]: 666 M⁻¹ min⁻¹
Ratio [2]: 36000 M⁻¹ min⁻¹
